What is called Ki is a dissociation constant, usually derived from enzyme kinetics or from competition with a known ligand. A higher Ki goes with weaker binding.

By UniProt entry, the sequences of proteins in these tests, tags left out.
UniProt P35372, whole entry: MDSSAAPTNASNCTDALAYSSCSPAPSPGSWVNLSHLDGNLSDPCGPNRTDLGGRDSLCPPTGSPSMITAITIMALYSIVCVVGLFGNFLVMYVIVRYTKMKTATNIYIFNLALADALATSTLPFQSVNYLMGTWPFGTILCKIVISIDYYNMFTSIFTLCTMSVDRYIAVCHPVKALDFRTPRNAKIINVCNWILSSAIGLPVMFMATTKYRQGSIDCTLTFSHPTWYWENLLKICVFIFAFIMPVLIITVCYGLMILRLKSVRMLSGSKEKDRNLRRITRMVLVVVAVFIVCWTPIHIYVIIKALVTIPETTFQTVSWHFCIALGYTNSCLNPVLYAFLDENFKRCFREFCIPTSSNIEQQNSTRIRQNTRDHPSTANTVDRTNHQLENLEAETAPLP
UniProt P41145, whole entry: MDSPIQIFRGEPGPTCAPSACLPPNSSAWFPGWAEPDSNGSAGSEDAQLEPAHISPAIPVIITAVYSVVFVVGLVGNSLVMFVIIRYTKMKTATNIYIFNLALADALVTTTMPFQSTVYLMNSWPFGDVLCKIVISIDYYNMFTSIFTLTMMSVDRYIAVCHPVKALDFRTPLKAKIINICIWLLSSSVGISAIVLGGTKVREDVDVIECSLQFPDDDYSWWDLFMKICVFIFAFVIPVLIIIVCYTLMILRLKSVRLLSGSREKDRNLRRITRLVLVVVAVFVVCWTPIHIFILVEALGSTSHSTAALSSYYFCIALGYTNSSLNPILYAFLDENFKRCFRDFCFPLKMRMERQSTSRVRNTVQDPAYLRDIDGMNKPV

This is an account of results in ChEMBL document CHEMBL1154594, “Delta agonist hydroxy bioisosteres: the discovery of 3-((1-benzylpiperidin-4-yl){4-[(diethylamino)carbonyl]phenyl}amino)benzamide with improved delta agonist activity and in vitro metabolic stability” (Bioorg Med Chem Lett, 2009).

One assay concerns the target Mu-type opioid receptor (Homo sapiens, UniProt P35372). The experiment in a line: Displacement of [125I]FK33824 from human cloned mu opioid receptor.
In assay [1] the target is Kappa-type opioid receptor (Homo sapiens, UniProt P41145). Description: Displacement of [125I]D-pro10-dynorphin from human cloned kappa opioid receptor. A general note: Loss of bound radioactivity is the signal in a displacement assay; it reports binding, not function.

As to `CCN(CC)C(=O)c1ccc(N(c2cccc(CO)c2)C2CCN(Cc3ccccc3)CC2)cc1`, the Ki turned out to be 3.81 µM at Mu-type opioid receptor and 6.67 µM in assay [1].

For the compound `CCN(CC)C(=O)c1ccc(N(c2cccc(C(C)O)c2)C2CCN(Cc3ccccc3)CC2)cc1` (configuration not stated), the Ki turned out to be 3.75 µM on Mu-type opioid receptor and 4.74 µM in assay [1].

On to `CCN(CC)C(=O)c1ccc(N(c2cccc(CN)c2)C2CCN(Cc3ccccc3)CC2)cc1`, for which the Ki on Mu-type opioid receptor was 0.831 µM; in assay [1], 2.93 µM.

As to `CCN(CC)C(=O)c1ccc(N(c2cccc(NC(=O)OC)c2)C2CCN(Cc3ccccc3)CC2)cc1`, the Ki at Mu-type opioid receptor amounted to 0.075 µM; in assay [1] it was 0.576 µM.

`CCN(CC)C(=O)c1ccc(N(c2cccc(O)c2)C2CCN(Cc3ccccc3)CC2)cc1`: the results for the Ki (at Mu-type opioid receptor; in assay [1]) were 0.088 µM and 0.744 µM, respectively.

With `CCN(CC)C(=O)c1ccc(N(c2cccc(C(=O)OC)c2)C2CCN(Cc3ccccc3)CC2)cc1`, the Ki is 7.1 µM at Mu-type opioid receptor and 5.54 µM in assay [1].

For `CCN(CC)C(=O)c1ccc(N(c2cccc(C(=O)NC)c2)C2CCN(Cc3ccccc3)CC2)cc1`, the figures for the Ki (on Mu-type opioid receptor; in assay [1]) were 4.71 µM and above 10 µM, respectively.

As for `CCN(CC)C(=O)c1ccc(N(c2cccc(CN(C)C)c2)C2CCN(Cc3ccccc3)CC2)cc1`, the values for the Ki (on Mu-type opioid receptor; in assay [1]) were 4.16 µM and 1.75 µM, respectively.

As to `CCN(CC)C(=O)c1ccc(N(c2cccc(NS(C)(=O)=O)c2)C2CCN(Cc3ccccc3)CC2)cc1`, the Ki at Mu-type opioid receptor was 0.462 µM; in assay [1], 3.56 µM.

For `CCN(CC)C(=O)c1ccc(N(c2ccc(C(N)=O)cc2)C2CCN(Cc3ccccc3)CC2)cc1`, the Ki on Mu-type opioid receptor was 0.486 µM; in assay [1], 6.18 µM.

Regarding `CCN(CC)C(=O)c1ccc(N(c2cccc(C=O)c2)C2CCN(Cc3ccccc3)CC2)cc1`, the inhibitory constant (Ki) is 1.19 µM at Mu-type opioid receptor and 4.8 µM in assay [1].

Consider `CCN(CC)C(=O)c1ccc(N(c2cccc(N)c2)C2CCN(Cc3ccccc3)CC2)cc1`, for which the Ki came out at 2.88 µM on Mu-type opioid receptor and 4.25 µM in assay [1].

Take `CCN(CC)C(=O)c1ccc(N(c2ccccc2C(N)=O)C2CCN(Cc3ccccc3)CC2)cc1`: the Ki on Mu-type opioid receptor is 5.04 µM; in assay [1], above 10 µM.

On to `CCN(CC)C(=O)c1ccc(N(c2cccc(C(C)=O)c2)C2CCN(Cc3ccccc3)CC2)cc1`, for which the Ki at Mu-type opioid receptor was determined as 1.54 µM; in assay [1], 4.54 µM.

For `CCN(CC)C(=O)c1ccc(N(c2cccc(NC(C)=O)c2)C2CCN(Cc3ccccc3)CC2)cc1`, the inhibition constant Ki at Mu-type opioid receptor was 1.02 µM; in assay [1], above 10 µM.

`CCN(CC)C(=O)c1ccc(N(c2cccc(C(N)=O)c2)C2CCN(Cc3ccccc3)CC2)cc1`: the figures for the inhibition constant Ki (at Mu-type opioid receptor; in assay [1]) were 0.282 µM and 0.725 µM, respectively.
